# Antibody variant affinities, Ab-91 heavy chain, assay 2

The target is the same throughout: PDVDLGDISGINAS, from the HR2 region of SARS-CoV-2 spike.

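In library AAYL51, one, two or three CDR residues were substituted; doubles and triples were drawn at random. In AlphaSeq, yeast of one mating type display the scFv and yeast of the other type display the target. Mating (16 h, 30 °C) was followed by selection of diploids and sequencing of their barcodes. A regression on co-assayed BCL2-family reference pairs converts the normalised counts of each replicate to an apparent Kd. The assay was run in three technical replicates.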

Each scFv is VL, three GGGGS repeats, VH, as in the parent Ab-91, and differs from it in the CDRs of the heavy chain only.
VL: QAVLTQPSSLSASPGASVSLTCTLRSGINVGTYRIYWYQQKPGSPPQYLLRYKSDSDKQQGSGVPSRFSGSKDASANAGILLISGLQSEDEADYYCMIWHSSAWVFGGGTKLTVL
VH: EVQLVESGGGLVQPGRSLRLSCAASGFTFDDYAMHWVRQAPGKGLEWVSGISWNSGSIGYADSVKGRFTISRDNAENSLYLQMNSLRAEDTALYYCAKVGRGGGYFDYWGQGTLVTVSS

Each variant is given by its three heavy chain CDRs, as the data file delimits them; those of the parent are GFTFDDYAMH, GISWNSGSIGYADSVK, VGRGGGYFDY. All variants listed here change G104 of the VH, counted from its first residue. Scale: log10 of Kd in nM, estimated from mating counts; low values are strong binders. Replicates are averaged; those with no signal do not enter the mean. A pair that was not seen in that replicate is written "ND"; this usually means weak binding, but a binder can also be missed. Empty control strains, which show no peptide, gave a signal in 21% of pairings with library AAYL51; the median was 4.54 and 95% of these signals were weaker than 3.26. No background was subtracted.

Variant GFEFDDYAMH / GISWNSGSIGYADSVK / WGRGGNYFDY gave ND, ND, ND. Variant GFTFDDYAMH / GISWNSGSIGYADSVK / VCRGGPGFDY gave 3.98, 4.07, ND (mean 4.02). Variant GFTFDDYAMH / GIRWNSGSIGYADSVK / VGRGGSEFDY showed ND, ND, 2.62. Variant GFTFDDYAMH / GISWNSGSCGYFDSVK / VGRGGAYFDY showed 4.86, ND, ND. For GFTFDDYAMH / GISWNSGSIGYADDVK / VGRGGFYEDY, the assay gave ND, ND, ND.

For GKTFDDYAMH / GISWNSGSCGYADSVK / VGRGGMYFDY, the assay gave ND, ND, ND. For GFTFDDYAMH / GISWNSGSIGYADSPK / VGRGGNYFDY, the assay gave 3.23, ND, ND. Variant GFTFDDYAMH / GISWNSGSIGYADSVK / VGRGYLYFEY gave 1.39, 1.31, 1.02 (mean 1.24). Variant GFTTDDYAGH / GISWNSGSIGYADSVK / VGRGGPYFDY showed 4.01, 6.26, ND (mean 5.14). With GFTFDDYAMH / GISWNSGSIGYADLVK / VGRAGVYFDY the result was ND, ND, ND.

For GFTFDDYASH / GISWNSGSIGYADSVK / VGRGCPYFDY, the assay gave ND, ND, ND. Variant GFTFDDYAKH / GISWNSGSIHYADSVK / VGRGGRYFDY gave ND, ND, ND. For GFTFDDYAMH / DISWNSGSIGYADSVK / VSRGGKYFDY, the assay gave ND, ND, ND. For GFTFDWYAMH / GISWNSGSIGYADSVK / VGMGGYYFDY, the assay gave ND, ND, ND. With GFTFDDYVMH / GISWNSGSIGYADSVL / VGRGGEYFDY the result was ND, ND, ND.

Variant GFTFSDYAMH / GISWNSGSIGYADSVK / VGTGGPYFDY showed ND, ND, 3.96. Variant GFTFDDYAMH / GISWNVGSITYADSVK / VGRGGRYFDY showed 4.85, ND, 4.71 (mean 4.78). Variant GFTFDDYAMH / GISWNSGSIGYADSVK / VQRGGWYFDY gave ND, ND, ND. For GFTFDDYAMH / GISWNSKSIGYADSVK / KGRGGLYFDY, the assay gave ND, ND, 4.63. For GFTFDIYAMH / GISWNSGSIYYADSVK / VGRGGMYFDY, the assay gave ND, ND, 3.71.

Variant GFTFDDYAMH / GISWNSGSIGYADSVK / VGRVGWYPDY gave 5.95, 5.50, ND (mean 5.72). Variant GFTFDDWAMH / GISWNSGSIGYQDSVK / VGRGGNYFDY showed ND, 4.13, ND. Variant GFTFDDYAMH / GISWNSRKIGYADSVK / VGRGGMYFDY showed ND, ND, ND. Variant GFTFDDYAMH / GISWNSGSIGYADSVK / VKRGGQYFDY gave 2.31, 2.66, 2.18 (mean 2.38). Variant GFTFDDYAMH / GVSWNSGSIGYADSVG / VGRGGMYFDY showed 5.30, 5.46, ND (mean 5.38).

With GFTFDDSAMH / GISWNSGSLGYADSVK / VGRGGFYFDY the result was 4.40, ND, ND. With GCTFDDYAQH / GISWNSGSIGYADSVK / VGRGGEYFDY the result was ND, 4.24, ND. Variant AFTFDDYAMH / GISWNSGFIGYADSVK / VGRGGLYFDY showed ND, ND, 4.56. For GFTHDDYAMH / GISWNSGSIGYADSVK / VGRGTDYFDY, the assay gave 1.51, 1.04, 0.61 (mean 1.05). With GFTHDDKAMH / GISWNSGSIGYADSVK / VGRGGTYFDY the result was ND, ND, ND.

For GFTFDDIVMH / GISWNSGSIGYADSVK / VGRGGYYFDY, the assay gave ND, ND, ND. Variant GFTFDDYLMH / GISWNSGSIGYAVSVK / VGRGGHYFDY gave ND, ND, ND. For GFTFPDYMMH / GISWNSGSIGYADSVK / VGRGGFYFDY, the assay gave 5.47, ND, ND. For GFTFDDFAMH / GIEWNSGSIGYADSVK / VGRGGSYFDY, the assay gave 5.93, 6.07, ND (mean 6.00). With GFTWDDYAMH / GIRWNSGSIGYADSVK / VGRGGCYFDY the result was 5.15, ND, 4.67 (mean 4.91).

With GFTFDDYAMH / GIRWNSGSIGYADSVK / VGRGYPYFDY the result was ND, 5.37, ND. With GFTFDDYAMH / GISWNSGSWGYAMSVK / VGRGGVYFDY the result was ND, ND, ND. For GFTFDDYLMH / GISWNSGSIGYADSVK / VGRGGPYFMY, the assay gave ND, ND, 4.78. For GFTHDDYAMH / GISWNSGSIGYADSVK / VGRGGEYFDY, the assay gave 4.69, 6.48, 4.71 (mean 5.29). Variant GFTFDDYAMH / GISWNQGSIGYADSVK / VGRGIVYFDY gave ND, ND, ND.

With GFEFDDYAMH / GISWNSGSIGYADSVK / VGDGGEYFDY the result was 2.76, 2.60, 2.73 (mean 2.70).

Picked from the list: the 4 lowest averages where every replicate gave a value.

| CDR-H1 | CDR-H2 | CDR-H3 | replicates, log10 nM | mean log10 Kd (nM) |
|---|---|---|---|---|
| GFTHDDYAMH | GISWNSGSIGYADSVK | VGRGTDYFDY | 1.51, 1.04, 0.61 | 1.05 |
| GFTFDDYAMH | GISWNSGSIGYADSVK | VGRGYLYFEY | 1.39, 1.31, 1.02 | 1.24 |
| GFTFDDYAMH | GISWNSGSIGYADSVK | VKRGGQYFDY | 2.31, 2.66, 2.18 | 2.38 |
| GFEFDDYAMH | GISWNSGSIGYADSVK | VGDGGEYFDY | 2.76, 2.60, 2.73 | 2.70 |

The measurements come from Engelhart et al. 2022 (doi:10.1038/s41597-022-01779-4) through the FLAb antibody collection.